A word on the IC50: it is the concentration at which inhibition is half-maximal.

Sequences of proteins named here, by UniProt entry; tags and fusion partners are left off. Residues count along the entry.
UniProt Q08499, 380-740 limits assumed: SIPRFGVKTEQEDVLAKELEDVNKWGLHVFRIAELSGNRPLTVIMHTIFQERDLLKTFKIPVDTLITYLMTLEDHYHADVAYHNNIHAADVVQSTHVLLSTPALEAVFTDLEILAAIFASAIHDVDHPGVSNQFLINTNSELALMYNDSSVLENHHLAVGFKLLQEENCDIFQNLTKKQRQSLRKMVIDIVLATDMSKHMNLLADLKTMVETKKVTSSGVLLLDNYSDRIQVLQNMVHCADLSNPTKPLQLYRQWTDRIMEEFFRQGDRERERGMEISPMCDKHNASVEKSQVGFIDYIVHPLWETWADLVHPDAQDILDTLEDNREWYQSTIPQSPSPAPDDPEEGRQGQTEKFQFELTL

Where only a bound is given, the exact number is not on record here.

IC50 data for one molecule are collected here from patent US10906915B2, “Substituted pyrazoloazepin-4-ones and their use as phosphodiesterase inhibitors” (LEO Pharma A/S, priority 2016, dated 2021).

This assay concerns the target human PDE4D catalytic domain (UniProt no. Q08499) (Homo sapiens (Human), UniProt Q08499). In words: PDE4 assay (TR-FRET, FAM-cAMP cleavage). Conditions: read-out: PDE4 IC50 range. (TR-FRET usually uses a lanthanide donor and a delayed reading to cut background.)

For the molecule `CCc1nn(CCOC(=O)c2ccccc2)c2c1C(=O)NCC1(CCOCC1)C2`, the IC50 was below 0.1 µM.
